Measured values reported in US8637554B2, “Methods for treating thyroid cancer” (The Trustees of the University of Pennsylvania, priority 2008, dated 2014).

System: metastatic papillary thyroid carcinoma (mPTC)
Assay: Response by CT and PET scan in two patients with metastatic papillary thyroid carcinoma on sorafenib
Assay type: in vivo, human
Method: Patient 1: A person palpated a right-sided neck mass in August 2004. The patient underwent total thyroidectomy with lymph node dissection and pathology confirmed mPTC in one of eight lymph nodes. They were treated with ^131I and placed on thyroid hormone replacement. In August 2005, an enlarged lymph node was palpated in their neck.
Treatment began on Apr. 18, 2006. Toxicity was assessed at every four weeks and response to treatment was assessed using serial CT and PET scans.
Patient 2: A person presented with a sore throat in March 2002. Their physician noted only right sided cervical lymphadenopathy. […] Thyroidectomy and right neck lymph node dissection removed a 2.5 cm tall-cell PTC with 12 of 49 lymph nodes containing mPTC.
PET scans were obtained on a dedicated whole-body PET scanner (C-PET, Phillips). At FDG injection, patients had fasted for 6 hours and blood glucose levels were less than 150 mg/dL. Image acquisition started 60 min following intravenous administration of FDG at a dose of 1.85 MBq/kg (0.05 mCi/kg) body weight. A transmission scan was obtained for attenuation correction.

SMILES: CNC(=O)c1cc(Oc2ccc(NC(=O)Nc3ccc(Cl)c(C(F)(F)F)c3)cc2)ccn1 [sorafenib]
- PET metabolic activity (Patient 1, three and seven weeks after starting treatment): marked decrease in metabolic activity
- Size of largest target lesion (Patient 2, after 12 weeks, from 3.6 cm): 1.3 cm
